{"source": "patent US9133260B2", "about": "(priority 2005, dated 2015)", "origin": "cited, not measured here", "details": "subcutaneous, conscious rats, rat weight ~200 g; cited from earlier work"}
{"smiles": "CC[C@H](C)[C@H](NC(=O)[C@@H]1CCCN1C(=O)CNC(=O)[C@H](Cc1ccccc1)NC(=O)[C@H](CC(N)=O)NC(=O)[C@H](CC(N)=O)NC(=O)[C@H](CO)NC(=O)[C@H](CO)NC(=O)[C@H](Cc1c[nH]cn1)NC(=O)[C@@H](NC(=O)[C@H](CC(C)C)NC(=O)[C@H](Cc1ccccc1)NC(=O)[C@H](CC(N)=O)NC(=O)[C@H](C)NC(=O)[C@H](CC(C)C)NC(=O)[C@H](CCCNC(=N)N)NC(=O)[C@H](CCC(N)=O)NC(=O)[C@@H](NC(=O)[C@H](C)NC(=O)[C@@H]1CSSC[C@H](NC(=O)[C@@H](N)CCCCN)C(=O)N[C@@H](CC(N)=O)C(=O)N[C@@H]([C@@H](C)O)C(=O)N[C@@H](C)C(=O)N[C@@H]([C@@H](C)O)C(=O)N1)[C@@H](C)O)C(C)C)C(=O)N[C@@H](CC(C)C)C(=O)N1CCC[C@H]1C(=O)N1CCC[C@H]1C(=O)N[C@H](C(=O)N[C@@H](CC(N)=O)C(=O)N[C@H](C(=O)NCC(=O)N[C@@H](CO)C(=O)N[C@@H](CC(N)=O)C(=O)N[C@H](C(=O)N[C@@H](Cc1ccc(O)cc1)C(N)=O)[C@@H](C)O)C(C)C)[C@@H](C)O", "note": "[Pramlintide, ^25,28,29Pro-h-amylin]", "values": [{"measurement": "EC(50) inhibition of gastric emptying", "result": 0.07, "unit": "µg"}]}
